# Test results from PubChem BioAssay AID1792 (The Scripps Research Institute Molecular Screening Center, 2009).
# By UniProt entry, the sequences of proteins in these tests, tags left out.
# UniProt Q9Y5S8, whole entry: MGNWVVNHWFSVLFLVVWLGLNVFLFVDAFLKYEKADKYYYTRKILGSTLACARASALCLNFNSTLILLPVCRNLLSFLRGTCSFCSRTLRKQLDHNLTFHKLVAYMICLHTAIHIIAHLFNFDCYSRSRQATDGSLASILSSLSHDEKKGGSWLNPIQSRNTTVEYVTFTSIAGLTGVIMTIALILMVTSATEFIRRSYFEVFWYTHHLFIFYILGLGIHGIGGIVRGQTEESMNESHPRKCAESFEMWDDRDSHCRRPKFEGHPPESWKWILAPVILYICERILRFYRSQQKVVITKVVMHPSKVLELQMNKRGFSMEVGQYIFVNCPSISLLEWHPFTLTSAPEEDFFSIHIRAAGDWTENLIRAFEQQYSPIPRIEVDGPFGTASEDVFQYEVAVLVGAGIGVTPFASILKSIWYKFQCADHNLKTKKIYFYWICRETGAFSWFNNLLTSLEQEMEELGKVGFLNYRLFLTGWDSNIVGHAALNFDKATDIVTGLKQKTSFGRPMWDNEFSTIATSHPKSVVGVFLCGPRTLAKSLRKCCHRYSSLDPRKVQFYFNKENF
# This is a selection; strong and weak results do not stand in their true shares. Active and inactive are the calls of the source. Cut-off read from the data, not from the text of the source: active = inhibition above about 75%; inactive = the rest.
# Target: NADPH oxidase 1 (Homo sapiens) (UniProt Q9Y5S8)
# Assay: inhibitors of human NADPH oxidase 1 (Nox1) (AID 1792)
# Settings: HT29 cells, luminol chemiluminescence ROS; at 6.7 µM; hits give high values
row,Compound,inhibition
1,Cc1ccccc1NC1CC(C)(C)NC(C)(C)C1,inactive: -9.6%
